The values that follow are results of earlier work, collected in paper PMC11678063.

pKd: −log10 of the molar value.

For the series, the target named is amyloid beta (Homo sapiens).

The pKd is −log10 of the Kd, conventionally taken in molar units. As to calmodulin (from UniProt P0DP23), the pKd is 9.01.
